Test results taken from patent US9714249B2 (Novartis AG, priority 2013, dated 2017).

Chains of the proteins cited; added tags and fusions are not shown.
UniProt Q86Y26, whole entry: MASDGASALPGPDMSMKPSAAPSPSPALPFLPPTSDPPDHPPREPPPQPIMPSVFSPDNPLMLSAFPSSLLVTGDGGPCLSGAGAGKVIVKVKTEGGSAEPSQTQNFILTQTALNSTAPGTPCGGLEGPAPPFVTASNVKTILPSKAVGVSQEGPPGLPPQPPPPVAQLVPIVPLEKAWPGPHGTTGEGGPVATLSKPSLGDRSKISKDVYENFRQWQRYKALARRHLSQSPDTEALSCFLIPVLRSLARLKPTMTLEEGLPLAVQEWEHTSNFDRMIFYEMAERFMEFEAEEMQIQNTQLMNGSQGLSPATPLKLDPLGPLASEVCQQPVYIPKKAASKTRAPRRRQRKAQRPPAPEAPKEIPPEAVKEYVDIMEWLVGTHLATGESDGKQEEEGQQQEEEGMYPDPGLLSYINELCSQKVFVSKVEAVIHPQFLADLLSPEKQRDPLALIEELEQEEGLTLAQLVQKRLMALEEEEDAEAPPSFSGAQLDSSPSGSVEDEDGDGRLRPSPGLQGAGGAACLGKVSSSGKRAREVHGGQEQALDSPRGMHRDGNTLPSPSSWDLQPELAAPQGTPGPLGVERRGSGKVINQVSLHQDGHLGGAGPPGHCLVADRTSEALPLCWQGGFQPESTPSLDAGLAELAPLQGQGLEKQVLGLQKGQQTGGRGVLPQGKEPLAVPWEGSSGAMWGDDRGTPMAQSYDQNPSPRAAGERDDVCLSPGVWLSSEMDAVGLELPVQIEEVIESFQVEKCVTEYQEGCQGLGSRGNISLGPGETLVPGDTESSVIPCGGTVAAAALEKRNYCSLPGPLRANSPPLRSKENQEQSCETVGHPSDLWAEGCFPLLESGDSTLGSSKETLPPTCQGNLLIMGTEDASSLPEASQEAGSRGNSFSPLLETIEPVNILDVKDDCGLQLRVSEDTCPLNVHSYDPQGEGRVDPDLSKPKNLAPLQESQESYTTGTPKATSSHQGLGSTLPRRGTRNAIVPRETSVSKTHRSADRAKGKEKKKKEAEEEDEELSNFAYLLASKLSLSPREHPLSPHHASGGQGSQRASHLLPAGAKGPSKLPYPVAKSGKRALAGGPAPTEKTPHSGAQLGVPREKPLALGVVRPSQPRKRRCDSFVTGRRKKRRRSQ

Assays:
BRD4-NUT-fusion = BRD4-NUT-fusion (Homo sapiens (Human), UniProt O60885+Q86Y26); experiment: Nut-foci formation assay (HCS) in HCC2494 NUT midline carcinoma cells; type: cell-based; settings: read-out: HCS Brd4-NUT IC50, 24 hours, nuclear BRD4-NUT foci, immunofluorescence
K-562 cells = experiment: Cell growth inhibition assay (CellTiter-Glo), K-562
MV-4-11 cells = experiment: Cell growth inhibition assay (CellTiter-Glo), MV-4-11
THP-1 cells = experiment: Cell growth inhibition assay (CellTiter-Glo), THP-1

## COc1ncccc1-n1nc(C)c2c1C(c1ccc(Cl)cc1)N(c1cc(Cl)c(=O)n(C)c1)C2=O (stereo not shown)
BRD4-NUT-fusion
  IC50: 60.9 nM
K-562 cells; K-562, 4 days, total growth inhibition
  K-562 TGI: >10000 nM
K-562 cells; read-out: K-562 GI50, K-562, 4 days, half-maximal growth inhibition
  GI50: 719 nM
MV-4-11 cells; MV-4-11, 4 days, total growth inhibition
  MV-4-11 TGI: 121 nM
MV-4-11 cells; read-out: MV-4-11 GI50, MV-4-11, 4 days, half-maximal growth inhibition
  GI50: 87.7 nM
THP-1 cells; THP-1, 4 days, total growth inhibition
  THP-1 TGI: 384 nM
THP-1 cells; read-out: THP-1 GI50, THP-1, 4 days, half-maximal growth inhibition
  GI50: 204 nM
